This is a selection; strong and weak results do not stand in their true shares. The source made the active and inactive calls.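 The calls were made as follows: active = EGFP signal decrease of at least 30% at 10 µM or well 3 SD below plate mean, unless failing retest; inactive = the rest, including hits failing retest or dose response.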

This test addresses p/CIP-EGFP fusion (nuclear receptor coactivator 3, mouse) (UniProt Q05BA5). The experiment in a line: p/CIP-EGFP fusion destabilizers, primary screen, fluorescence, F442A cells (AID 1984). To be noted: 16 h, at 10 µM, hits give high values.
On to `CCC1=CC2Cc3nc4ccc(Cl)cc4c(N)c3C(C1)C2` (stereo not drawn), for which the decrease of EGFP signal is inactive: -6.6%.
As to `O=P1(Nc2ccccn2)COc2ccccc2OC1`, the decrease of EGFP signal was inactive: -18.8%.
`CC(C)(C)C(=O)NC(Sc1ncccn1)C(Cl)(Cl)Cl` (stereo not drawn): the decrease of EGFP signal is inactive: -3.7%.
With `Clc1n[nH]nc1-c1nn[nH][15n]1`, the decrease of EGFP signal is inactive: -4.1%.
Under `O=[As](O)(c1ccccc1Br)c1ccccc1Br` stands inactive: -12.4%; under `CN(C(=O)Cc1ccc(Cl)c(Cl)c1)[C@@H]1CCCC[C@H]1N1CCCC1`, inactive: -4%.
In the case of `CC(C)/C=N\N=C(\N)N[N+](=O)[O-]`, the decrease of EGFP signal is inactive: 3.4%.
As to `Cc1ccc(C(=O)OC2CN3CCC2CC3)cc1` (stereo not drawn), the decrease of EGFP signal was inactive: 1.2%.
As to `CC1CCC(C(C)C)C(OP(=O)(Nc2ccccn2)c2ccccc2)C1` (stereo not drawn), the decrease of EGFP signal was inactive: 0.2%.
For `Cc1nn(-c2ccccc2)c2c1P(=O)(N1CCOCC1)N(C)C(c1ccccc1)=N2` (stereo not drawn), the decrease of EGFP signal is inactive: 8.2%.
Consider `O=C(/C=C/c1ccccc1)OC1CN2CCC1CC2` (stereo not drawn), for which the decrease of EGFP signal is inactive: -2.9%.
Consider `CN(C)C1(CNC(=O)c2ccc(S(C)(=O)=O)cc2)CCCCC1`, for which the decrease of EGFP signal was inactive: -7.2%.
On to `O=P1(Nc2ncccn2)COc2ccccc2OC1`, for which the decrease of EGFP signal is inactive: -212%.
Under `O=P1(Nc2ccc(Br)cn2)COc2ccccc2OC1` stands inactive: 0.1%.
Turning to `Cc1ccc(OCC(=O)OC2CN3CCC2CC3)cc1` (stereo not drawn), the decrease of EGFP signal is inactive: -5.7%.
Under `O=[As](O)(c1cccs1)c1cccs1` stands inactive: 0.1%; under `Nc1cccc([As](=O)(O)c2ccccc2)c1`, inactive: -5.9%; under `CS(=O)(=O)c1cc([N+](=O)[O-])c2no[n+]([O-])c2c1`, inactive: -9.9%.
The same measure for `O=P(Nc1nccs1)(c1ccccc1)c1nc2ccccc2s1` (stereo not drawn): inactive: -8.5%.
For `O=P(Nc1nccs1)(Oc1ccccc1)Oc1ccccc1`, the decrease of EGFP signal was inactive: 5.6%.
For `CCOP1(=S)c2c(C)nn(CCC#N)c2N=C(c2ccccc2F)N1C` (stereo not drawn), the decrease of EGFP signal is inactive: -7.5%.
On to `O=C(O)COc1ccc([As](=O)(O)O)cc1[N+](=O)[O-]`, for which the decrease of EGFP signal was inactive: 7.7%.
`Nc1ccccc1[As](=O)(O)c1ccccc1`: the decrease of EGFP signal was inactive: 4.7%.
The same measure for `NC(=O)Nc1ccc([As](=O)(O)O)cc1`: inactive: -0.2%; for `O=[N+]([O-])c1ccc2c(c1)nnn2O`: inactive: -3.6%; for `CCOP1(=S)c2c(C)nn(CCC#N)c2N=C(c2ccc(F)cc2)N1C` (stereo not drawn): inactive: -17.2%.
Take `CN(C(=O)Cc1ccccc1)[C@@H]1CC[C@]2(CCCO2)C[C@H]1N1CCCC1`: the decrease of EGFP signal is inactive: -3.1%.
For `CS(=O)(=O)c1ccc(Cl)c(NC(=O)COC(=O)C(O)(c2ccccc2)c2ccccc2)c1`, the decrease of EGFP signal is inactive: -7.5%.
The same measure for `COc1cc(C(=O)NCC2(N3CCOCC3)CCCCC2)cc(Cl)c1OC(C)C`: inactive: 11.2%; for `O=[As](O)(O)c1cccnc1`: inactive: -10.4%; for `O=C(OC1CN2CCC1CC2)c1ccc(Cl)cc1` (stereo not drawn): inactive: 0.5%.
For the molecule `O=[As](O)(c1cccc(O)c1)c1cccc(O)c1`, the decrease of EGFP signal is inactive: -7.7%.
Regarding `Cc1cccc(OCC(=O)OC2CN3CCC2CC3)c1` (stereo not drawn), the decrease of EGFP signal was inactive: -11.7%.
In the case of `CCCOP(=S)(Nc1nc(N)cc(=O)[nH]1)OCCC`, the decrease of EGFP signal was inactive: 3.9%.
The same measure for `Cc1ccc(NCCc2c([N+](=O)[O-])cc([N+](=O)[O-])cc2[N+](=O)[O-])cc1`: inactive: 3.8%; for `Nc1cccc2c([As](=O)(O)O)cccc12`: inactive: -24.6%.
`CCOP(=O)(Nc1cccc2ccccc12)OCC`: the decrease of EGFP signal is inactive: -3.6%.
Regarding `COc1cc(C2NCCC3(OCCO3)C2(C)C)cc(OC)c1OC` (stereo not drawn), the decrease of EGFP signal is inactive: -1.7%.
